# Curated experimental data: melting point values

Values as listed in the OPERA 2.9 repository of K. Mansouri.

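OPERA's authors assembled the values from existing databases and did not measure them anew. The files give a single number for a compound and property, which may rest on several reports. Method and conditions are not stated for these values. Where a salt, mixture or single isomer is drawn, the source does not say that exactly this form was tested. Some upstream entries may be estimates or bounds without being marked so.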

Melting points are in °C. Cells with "n/a" have no entry in this list.

- CCCn1c(C)cc(C=O)c1C [2,5-Dimethyl-1-propyl-1H-pyrrole-3-carbaldehyde]: melting point 53 °C
- C/C=C1/C[C@@H](C)[C@@](C)(O)C(=O)OCC2=CCN(C)CC[C@@H](OC1=O)C2=O [Senkirkine]: melting point 198 °C
- Brc1ccc(Oc2ccc(Br)c(Br)c2Br)c(Br)c1 [2,2',3,4,4'-Pentabromodiphenyl ether]: melting point 121.5 °C
- O=C([O-])C(F)(F)C(F)F.[Na+] [Sodium 2,2,3,3-tetrafluoropropionate]: melting point 166 °C
- Clc1ccc(-c2ccc(Cl)c(Cl)c2Cl)c(Cl)c1Cl [2,2',3,3',4,4'-Hexachlorobiphenyl]: melting point 152 °C
- c1ccc2[nH]c(C3CCNCC3)nc2c1 [2-(Piperidin-4-yl)-1H-benzimidazole]: melting point 254 °C
- NNc1c([N+](=O)[O-])cc(C(F)(F)F)cc1[N+](=O)[O-] [[2,6-Dinitro-4-(trifluoromethyl)phenyl]hydrazine]: melting point 130 °C
- c1ccc(CP(c2ccccc2)c2ccccc2)cc1 [Benzyldiphenylphosphine]: melting point 74.5 °C
- Cl.ClCc1cccnc1 [3-(Chloromethyl)pyridine hydrochloride]: melting point 142.5 °C
- N#CCCNC(=O)CCl [Acetamide, 2-chloro-N-(2-cyanoethyl)-]: melting point 97 °C
- C=CCCC#N [4-Pentenenitrile]: melting point -48.5 °C
- O=C1N=C(O)C2(CCCCCC2)C(O)=N1 [2,4-Diazaspiro[5.6]dodecane-1,3,5-trione]: melting point 266 °C
- COC(=O)C1=CCCN(C)C1.Cl [Arecoline hydrochloride]: melting point 158 °C
- Cc1ccc(C)c(C(=O)CCl)c1 [2-chloro-1-(2,5-dimethylphenyl)ethanone]: melting point 29 °C
- BrCc1ccccc1I [2-Iodobenzyl bromide]: melting point 55.5 °C
- N#Cc1ccc(CN2CCNCC2)cc1 [1-(4-Cyanobenzyl)piperazine]: melting point 215 °C
- C=CCC1(C2C=CCC2)C(=O)NC(=O)NC1=O (stereo not given): melting point 140 °C
- Nc1nnc(N)s1 [1,3,4-Thiadiazole, 2,5-diamino-]: melting point 193 °C
- Clc1ccc(Cl)c(-c2cc(Cl)c(Cl)c(Cl)c2Cl)c1 [2,2',3,4,5,5'-Hexachlorobiphenyl]: melting point 85 °C
- CN(C)[P+](Cc1ccccc1)(N(C)C)N(C)C.F[B-](F)(F)F: melting point 147 °C
- COCCn1c(C)cc(C=O)c1C [1-(2-Methoxyethyl)-2,5-dimethyl-1H-pyrrole-3-carbaldehyde]: melting point 45 °C
- COc1ccc(CCl)cc1Br [2-bromo-4-(chloromethyl)-1-methoxybenzene]: melting point 48 °C
- C[C@]12CC=C3[C@@H](CC[C@@]45CC6(CC[C@@]34O5)OCCO6)[C@@H]1CCC2=O: melting point 120 °C
- COS(=O)(=O)[O-].C[N+]1(C)CCCC1COC(=O)C(O)(c1ccccc1)c1ccccc1 (stereo not given): melting point 154 °C
- C[N@@](CCCCCC(O)=O)S(=O)(=O)C1C=CC=CC=1: melting point 56 °C
- CNC(=O)Oc1ccccc1Cl [CPMC]: melting point 90.5 °C
- O=C(CCl)N1CCCC1=O [1-(2-Chloro-acetyl)-pyrrolidin-2-one]: melting point 34 °C
- CCCC1COC(Cn2cncn2)(c2ccc(Cl)cc2Cl)O1 (stereo not given) [Propiconazole]: melting point 1 °C
- NCC(=O)c1ccccc1 [Phenacylamine]: melting point 20 °C
- CN1CCc2cc3c(cc2C1O)OCO3 (stereo not given) [Hydrastinine]: melting point 116 °C
- C[C@@H](Oc1ccc(Oc2ccc(C#N)cc2F)cc1)C(=O)O [Cyhalofop]: melting point 50 °C
- Cc1cc(C(=O)CCl)c(C)[nH]1 [2-Chloro-1-(2,5-dimethyl-1H-pyrrol-3-yl)ethan-1-one]: melting point 144 °C
- Cc1cc(C=O)c(C)n1C1CC1 [1-Cyclopropyl-2,5-dimethyl-1H-pyrrole-3-carbaldehyde]: melting point 73 °C

Extract of 2 entries:

compound	name	melting point (°C)
C=CCC1(C2C=CCC2)C(=O)NC(=O)NC1=O (stereo not given)	n/a	140
O=C(CCl)N1CCCC1=O	1-(2-Chloro-acetyl)-pyrrolidin-2-one	34